From patent US20040105778A1, “Gamma irradiation of solid nanoparticulate active agents” (Elan Pharma International Limited, priority 2002, published 2004)

Assay: Gamma irradiation dosing studies, naproxen assay and degradants
Format: physicochemical
Description: Without being bound by theory, it is believed that the source of the degradation product is from the naproxen active pharmaceutical ingredient (API). Gamma irradiation dosing studies of naproxen API were conducted with doses of 0, 5, 10, 15, 25, 30, 40, and 50 kGy. A degradation product was detected in the API at the same Relative Retention Time (RRT) as the degradant in the GIL samples. The degradant in the API was present in all samples at all radiation doses tested. There was a direct relationship between the gamma dose and quantity of the degradation product.
Without being bound by theory, it is believed that the source of the degradation product is from the active naproxen pharmaceutical ingredient (API). Gamma irradiation dosing studies of naproxen API were conducted with doses of 0, 5, 10, 15, 25, 30, 40, and 50 kGy. A degradation product was detected in the naproxen API at the same Relative Retention Time (RRT) as the degradant in the GIL samples. The degradant in the naproxen API was present in all samples at all radiation doses tested. There was a direct relationship between the gamma dose and quantity of the degradation product. Refer to Example 2, Table 7 for the results of this testing.

In the case of `COc1ccc2cc([C@H](C)C(=O)O)ccc2c1` [Naproxen (API), naproxen], the “Naproxen Assay Relative to Control” value (gamma dose 15 kGy) is reported as 101.38, the “Naproxen Assay Relative to Control” value (gamma dose 25 kGy) is reported as 101.02 and the “Naproxen Assay Relative to Control” value (gamma dose 30 kGy) is reported as 101.41.
